Earlier results as cited in article PMC7931226 (Pharmacology Research & Perspectives, 2021).

System: P-gp (Mdr1a/b)
Conditions: mouse genetic KO; cited from earlier work

C=C[C@H]1C[N@@]2CC[C@H]1C[C@@H]2[C@@H](O)c1ccnc2ccc(OC)cc12 [quinidine]
increase in Kp brain: 12.4 fold
